Among the data in ChEMBL document CHEMBL3243964, “Biomolecules bearing the S- or SeAsMe2 function: amino acid and steroid derivatives” (J Med Chem, 1979) are T/C and Activity values, retold here.

Structures are written as SMILES.

Usually T/C stands for the ratio of treated to control.

The subject of experiment [1] is L1210. Kind of experiment: Carcinostatic activity against mouse L1210 cells allografted in mouse assessed as increase in survival at 25 mg/kg relative to control.
Experiment [2] relates to L1210. Nature of the experiment: Carcinostatic activity against mouse L1210 cells allografted in mouse assessed as increase in life span at 25 mg/kg relative to control.
Experiment [3] relates to L1210. Nature of the experiment: Carcinostatic activity against mouse L1210 cells allografted in mouse assessed as increase in life span at 50 mg/kg relative to control.

Regarding `C[As](C)Sc1ncnc2[nH]cnc12`, the T/C with L1210 [1] was found to be 144%. Besides, the Activity in the experiment with L1210 [2] was 7%.

In the case of `C[As](C)SC(C)(C)C(N)C(=O)O` (stereo not given), the T/C in the experiment on L1210 [1] stood at 117%. The Activity in the experiment with L1210 [3] was 2%; in the experiment with L1210 [2], 3%.
